Amino acid sequences for entries named in this document (tags omitted). A change or cut given only in a name is not applied to a line headed by its entry.
UniProt P15823, whole entry, looked up: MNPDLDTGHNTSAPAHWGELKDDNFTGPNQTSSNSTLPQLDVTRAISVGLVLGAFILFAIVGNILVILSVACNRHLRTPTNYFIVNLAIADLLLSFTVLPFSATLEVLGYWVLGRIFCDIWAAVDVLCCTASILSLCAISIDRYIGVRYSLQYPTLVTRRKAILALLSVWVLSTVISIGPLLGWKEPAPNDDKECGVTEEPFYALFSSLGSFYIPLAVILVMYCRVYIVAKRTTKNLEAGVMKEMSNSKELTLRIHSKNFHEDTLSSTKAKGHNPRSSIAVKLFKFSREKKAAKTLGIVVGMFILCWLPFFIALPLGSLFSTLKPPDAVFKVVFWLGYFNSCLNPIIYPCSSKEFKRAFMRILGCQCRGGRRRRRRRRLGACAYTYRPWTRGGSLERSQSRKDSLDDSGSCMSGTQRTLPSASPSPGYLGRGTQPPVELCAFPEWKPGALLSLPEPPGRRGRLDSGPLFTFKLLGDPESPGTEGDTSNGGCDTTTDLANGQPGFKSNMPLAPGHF
UniProt P23944, whole entry, looked up: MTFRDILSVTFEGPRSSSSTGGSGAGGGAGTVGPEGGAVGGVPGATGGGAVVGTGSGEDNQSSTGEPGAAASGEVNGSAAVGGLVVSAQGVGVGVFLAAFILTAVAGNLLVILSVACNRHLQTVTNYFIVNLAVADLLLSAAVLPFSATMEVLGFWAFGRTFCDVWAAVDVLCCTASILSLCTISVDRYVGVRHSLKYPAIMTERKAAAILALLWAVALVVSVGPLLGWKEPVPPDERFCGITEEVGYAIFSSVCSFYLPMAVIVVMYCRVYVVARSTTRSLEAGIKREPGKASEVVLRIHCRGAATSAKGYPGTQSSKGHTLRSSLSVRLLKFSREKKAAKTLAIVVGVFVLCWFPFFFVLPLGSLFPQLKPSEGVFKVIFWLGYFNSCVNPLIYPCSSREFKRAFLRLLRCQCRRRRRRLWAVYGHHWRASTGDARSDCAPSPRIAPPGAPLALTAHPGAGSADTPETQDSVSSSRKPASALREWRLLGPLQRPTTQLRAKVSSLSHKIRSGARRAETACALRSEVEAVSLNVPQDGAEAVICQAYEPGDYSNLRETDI
UniProt P43140: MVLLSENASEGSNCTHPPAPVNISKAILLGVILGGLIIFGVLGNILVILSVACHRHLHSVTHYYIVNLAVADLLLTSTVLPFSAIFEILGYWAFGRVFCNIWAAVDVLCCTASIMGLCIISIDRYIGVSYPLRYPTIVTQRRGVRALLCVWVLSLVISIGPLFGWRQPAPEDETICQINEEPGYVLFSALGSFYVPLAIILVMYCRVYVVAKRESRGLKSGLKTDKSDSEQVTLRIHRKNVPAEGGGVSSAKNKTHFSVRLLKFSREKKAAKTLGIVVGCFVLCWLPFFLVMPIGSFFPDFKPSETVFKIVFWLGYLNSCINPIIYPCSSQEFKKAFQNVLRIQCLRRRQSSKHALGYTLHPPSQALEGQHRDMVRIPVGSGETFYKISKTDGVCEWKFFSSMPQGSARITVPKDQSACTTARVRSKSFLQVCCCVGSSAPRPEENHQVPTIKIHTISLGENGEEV

This experiment concerns the target Adrenergic receptor alpha-1 (Rattus norvegicus) (UniProt P15823+P23944+P43140). The experiment is described as follows: Binding affinity to rat cortex alpha-1 adrenergic receptor assessed as reduction in [3H]-Prazosin binding to ADRA1 at 1 uM incubated for 30 mins by microbeta2 scintillation counter analysis relative to control. It is filed as tissue-based. Also on record: scale not given: the % may be the effect or the level left.
For the compound `N#Cc1ccc2[nH]cc(CCN3CCN(c4cccc5c4[nH]c(=O)n5Cc4ccccc4)CC3)c2c1`, the Activity is 4%.
Under `O=S(=O)(c1ccccc1)c1c[nH]c2c(C3CCN(CCc4c[nH]c5ccc(Cl)cc45)CC3)cccc12` stands 16%.
As to `N#Cc1ccc2[nH]cc(CCN3CCC(c4cccc5c(S(=O)(=O)c6ccccc6)c[nH]c45)CC3)c2c1`, the Activity came to 29%.
Under `N#Cc1ccc2[nH]cc(CCN3CCN(c4cccc5c4ccn5S(=O)(=O)c4ccccc4)CC3)c2c1` stands 81%.
Under `O=c1[nH]c2c(N3CCN(CCCc4c[nH]c5ccc(F)cc45)CC3)cccc2n1Cc1ccccc1` stands 3%; under `Cc1c(OCc2ccccc2)cccc1N1CCN(CCCc2c[nH]c3ccc(Cl)cc23)CC1`, 0%; under `O=S(=O)(c1ccccc1)c1c[nH]c2c(C3CCN(CCc4c[nH]c5ccc(F)cc45)CC3)cccc12`, 2%.
Under `O=S(=O)(c1ccccc1)n1ccc2c(N3CCN(CCCc4c[nH]c5ccc(F)cc45)CC3)cccc21` stands 80%; under `O=c1[nH]c2c(N3CCN(CCc4c[nH]c5ccc(Cl)cc45)CC3)cccc2n1Cc1ccccc1`, 13%.
In the case of `N#Cc1ccc2[nH]cc(CCCN3CCN(c4cccc5c4[nH]c(=O)n5Cc4ccccc4)CC3)c2c1`, the Activity was found to be 8%.
For `N#Cc1ccc2[nH]cc(CCCN3CCC(c4cccc5c(S(=O)(=O)c6ccccc6)c[nH]c45)CC3)c2c1`, the Activity came to 6%.
Under `O=S(=O)(c1ccccc1)n1ccc2c(N3CCN(CCc4c[nH]c5ccc(Cl)cc45)CC3)cccc21` stands 7%.
Under `N#Cc1ccc2[nH]cc(CCCCN3CCC(c4cccc5c(S(=O)(=O)c6ccccc6)c[nH]c45)CC3)c2c1` stands 0%; under `O=S(=O)(c1ccccc1)n1ccc2c(N3CCN(CCCc4c[nH]c5ccc(Cl)cc45)CC3)cccc21`, 83%.
For `Cc1c(OCc2ccccc2)cccc1N1CCN(CCc2c[nH]c3ccc(F)cc23)CC1` the value was 7%; for `O=S(=O)(c1ccccc1)n1ccc2c(N3CCN(CCc4c[nH]c5ccc(F)cc45)CC3)cccc21`, 87%.
As for `Cc1c(OCc2ccccc2)cccc1N1CCN(CCc2c[nH]c3ccc(C#N)cc23)CC1`, the Activity stood at 15%.
Under `N#Cc1ccc2[nH]cc(CCCCN3CCN(c4cccc5c4[nH]c(=O)n5Cc4ccccc4)CC3)c2c1` stands 5%.
Under `O=c1[nH]c2c(N3CCN(CCCc4c[nH]c5ccc(Cl)cc45)CC3)cccc2n1Cc1ccccc1` stands 2%; under `N#Cc1ccc2[nH]cc(CCCCN3CCN(c4cccc5c4ccn5S(=O)(=O)c4ccccc4)CC3)c2c1`, 91%; under `N#Cc1ccc2[nH]cc(CCCN3CCN(c4cccc5c4ccn5S(=O)(=O)c4ccccc4)CC3)c2c1`, 0%.
As for `O=S(=O)(c1ccccc1)c1c[nH]c2c(C3CCN(CCCc4c[nH]c5ccc(Cl)cc45)CC3)cccc12`, the Activity stood at 22%.
For `Cc1c(OCc2ccccc2)cccc1N1CCN(CCCCc2c[nH]c3ccc(C#N)cc23)CC1` the value was 10%.
For `O=c1[nH]c2c(N3CCN(CCc4c[nH]c5ccc(F)cc45)CC3)cccc2n1Cc1ccccc1` the value was 0%; for `Cc1c(OCc2ccccc2)cccc1N1CCN(CCc2c[nH]c3ccc(Cl)cc23)CC1`, 0%; for `Cc1c(OCc2ccccc2)cccc1N1CCN(CCCc2c[nH]c3ccc(F)cc23)CC1`, 0%.
On to `Cc1c(OCc2ccccc2)cccc1N1CCN(CCCc2c[nH]c3ccc(C#N)cc23)CC1`, for which the Activity turned out to be 10%.
For `O=S(=O)(c1ccccc1)c1c[nH]c2c(C3CCN(CCCc4c[nH]c5ccc(F)cc45)CC3)cccc12` the value was 29%.

The values above are taken from ChEMBL document CHEMBL5579837, “Dual 5-HT6/SERT ligands for mitigating neuropsychiatric symptoms of dementia exerting neuroprotection against amyloid-β toxicity, memory preservation, and antidepressant-like properties” (Eur J Med Chem, 2024).
